In ChEMBL document CHEMBL5352402, “Discovery of novel non-nucleoside inhibitors with high potency and selectivity for DNA methyltransferase 3A” (Eur J Med Chem, 2022):

molecular target: DNMT3A2/3L complex (Homo sapiens, UniProt Q9Y6K1); assay: Inhibition of N-terminal His-tagged human DNMT3A (623 to 912 residues)/N-terminal GST-tagged human DNMT3L (160 to 387 residues) co-expressed in baculovirus infected Sf9 cells assessed as DNA methylation using DNA oligonucleotide IDT-01 as substrate preincubated for 15 mins followed by substrate addition in presence of [3H]-SAM and measured after 4 hrs by radioactive methylation assay

| IC50 [µM] | Structure (SMILES) |
| --- | --- |
| 0.7 | Cc1oc2ncn(CCN3CCCCC3)c(=O)c2c1C(=O)Nc1ccc(S(N)(=O)=O)nc1 |
| 0.39 | Cc1oc2ncn(CCN3CCCC3)c(=O)c2c1C(=O)Nc1ccc(S(N)(=O)=O)nc1 |
| 0.75 | Cc1oc2ncn(CCN(C)C)c(=O)c2c1C(=O)Nc1ccc(S(N)(=O)=O)nc1 |
